The source of these data is PubChem BioAssay AID652105 (National Center for Advancing Translational Sciences (NCATS), 2013).

The chains behind the UniProt entries cited, without tags or fusion partners. Where a name states a change or a piece, a line headed by the entry shows the natural chain unless it says otherwise.
UniProt P48426: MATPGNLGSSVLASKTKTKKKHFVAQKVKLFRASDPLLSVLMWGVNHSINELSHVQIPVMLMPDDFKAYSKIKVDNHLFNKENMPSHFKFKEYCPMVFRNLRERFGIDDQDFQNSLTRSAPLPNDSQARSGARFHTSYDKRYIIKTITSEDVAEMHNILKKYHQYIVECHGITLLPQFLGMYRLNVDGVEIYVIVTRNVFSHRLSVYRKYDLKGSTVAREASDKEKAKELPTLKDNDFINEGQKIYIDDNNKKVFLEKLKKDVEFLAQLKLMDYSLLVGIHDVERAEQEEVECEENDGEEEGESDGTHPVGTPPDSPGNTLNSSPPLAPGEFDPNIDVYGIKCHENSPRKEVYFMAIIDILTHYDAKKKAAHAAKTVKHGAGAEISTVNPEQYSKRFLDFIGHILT

The list shows a part of the results, in another mix than the full data. The source made the active and inactive calls. The calls were made as follows: active = max response of -50% or lower; inconclusive = between -30% and -50%; inactive = -30% or higher.
% is scaled to controls: 0 for no effect and ±100 for the full control effect.

In this experiment the target is Phosphatidylinositol 5-phosphate 4-kinase type-2 alpha (Homo sapiens) (UniProt P48426). The experiment is described as follows: qHTS for Inhibitors of phosphatidylinositol 5-phosphate 4-kinase (PI5P4K). Also: value at the top dose of about 77 µM. Particulars: PI5P4Kalpha enzyme, ADP-Glo luminescence, 60 min; hits give low values. Summed up:
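qHTS, 1536-well: enzyme/substrate mix, compound by pin tool, 5 microM ATP final; RT 60 min; ADP-Glo reagents 1 (45 min) then 2 (30 min); luminescence.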
(In general: qHTS replaces the single test concentration by a dilution series.)
For `C[N+]1=C2C=CC=CC=C2SC12C([N+](=O)[O-])=CC([N+](=O)[O-])=C[C-]2[N+](=O)[O-]` (centres undefined), the max response was active: -73.7%.

As to `Cc1ccc(NP(=O)(Oc2ccccc2)Oc2ccccc2)nc1`, the max response was inactive: 6.93%.

On to `CCc1nc2c(n1)c1c(non1O)c1c2no[n+]1[O-]`, for which the max response is inactive: 0.217%.

For the compound `CC(=O)N1C2C3N(C(C)=O)C1C1N(C(C)=O)C(C(N1C(C)=O)N3C(C)=O)N2C(C)=O`, the max response is inactive: 1.65%.

As for `O=[N+]([O-])c1cccc2n[nH]nc12`, the max response is inactive: -7.62%.

Consider `COc1ccc(C2=NCC(CBr)S2)cc1` (centres undefined), for which the max response is inactive: 0.19%.

For `O=C(O)CNc1ccc([As](=O)(O)O)cc1`, the max response was inactive: 0.548%.

Turning to `O=[N+]([O-])c1cccc(NC2=NCC(CBr)S2)c1` (centres undefined), the max response was inactive: -0.961%.

Turning to `COC(=O)C1(C)COP(=O)(Nc2ccccc2)OC1` (centres undefined), the max response was inactive: 17.6%.

As for `O=[N+]([O-])c1ncn(CCn2ncnc2[N+](=O)[O-])n1`, the max response was inactive: 6.88%.

As for `CC(C)(C)C(=O)NC(Sc1ccncn1)C(Cl)(Cl)Cl` (centres undefined), the max response is inactive: -19.8%.

Take `O=C(Nc1cc([As](=O)(O)O)ccc1O)c1ccccc1`: the max response was inactive: -3.88%.

Take `O=P1(N(CCCl)CCCl)OCCCS1` (centres undefined): the max response is inactive: 0.145%.

On to `Nc1cccc2ccc([As](=O)(O)O)cc12`, for which the max response was inactive: 1.59%.

For `CCN(N=Nc1nonc1N)c1nonc1N`, the max response is inactive: 2.22%.

With `CCOP(=O)(Nc1ccccc1)OCC`, the max response is inactive: 6.99%.

In the case of `Cc1cc(SC(NC(=O)c2ccc(F)cc2)C(Cl)(Cl)Cl)ncn1` (centres undefined), the max response was active: -72.9%.

As to `CN(C(=O)Cc1ccc(Cl)c(Cl)c1)[C@H]1CCCC[C@@H]1N1CCCC1`, the max response was inactive: 0.189%.

On to `Cc1ccc(NP(=O)(Oc2ccccc2F)Oc2ccccc2F)nc1`, for which the max response was inactive: 3.31%.

Consider `CN(C)P(=O)(N(C)C)n1c(Nc2ccccc2)nnc1-c1ccccc1`, for which the max response was inactive: -1.68%.

Turning to `O=P(Nc1nc2ccc(Cl)cc2s1)(c1ccccc1)c1ccccc1`, the max response is inactive: 10.1%.

As for `O=C(O)c1ccccc1[As](=O)(O)O`, the max response is inactive: 4.79%.

On to `CC(=O)Nc1ccc([As](=O)(O)O)cc1`, for which the max response was inactive: 2.84%.

Regarding `CCCC1OP(N)(=O)OCC1CC` (centres undefined), the max response was inactive: 0.16%.

For the compound `O=[N+]([O-])C1C(O)C(O)C([N+](=O)[O-])C(O)C1O` (centres undefined), the max response is inactive: -8.4%.

As to `O=C(NC(Sc1ccncn1)C(Cl)(Cl)Cl)c1ccccc1` (centres undefined), the max response was active: -54.1%.

`Nc1cc(N)c2nonc2c1[N+](=O)[O-]`: the max response is inactive: -28.4%.

Take `Clc1ccc(Cl)c(NC2=NCC(CBr)S2)c1` (centres undefined): the max response was inactive: -1.88%.

For the compound `CN1CCCC(OC(=O)C(c2ccccc2)c2ccccc2)C1` (centres undefined), the max response was inactive: 2.2%.

On to `COc1ccccc1OP(=O)(Nc1ccc(C)cn1)Oc1ccccc1OC`, for which the max response was inactive: -7.3%.

For the compound `Cc1ccc(OP(=O)(Nc2nccs2)Oc2ccc(C)cc2)cc1`, the max response is inactive: 4.22%.

In the case of `CN(C(=O)Cc1ccc(Cl)c(Cl)c1)[C@H]1CCCC[C@H]1N1CCCC1`, the max response was inactive: 15.9%.

With `Cc1ccc(N/C(=N/P(=O)(N2CCOCC2)N2CCOCC2)N2CCOCC2)cc1`, the max response is inactive: 19%.

Regarding `NC(=O)c1cc([N+](=O)[O-])cc([N+](=O)[O-])c1N`, the max response is inactive: -3.13%.
